Reference: ChEMBL document CHEMBL4368908, “Inhibition of Inositol Polyphosphate Kinases by Quercetin and Related Flavonoids: A Structure-Activity Analysis” (J Med Chem, 2019)

Key:
Homo sapiens = organism: Homo sapiens; test: Selectivity ratio of IC50 for human IPMK to IC50 for human IP6K2
In short: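 Recombinant human IPMK (12 nM) or IP6K2 (400 nM) equilibrated 15 min at room temperature with compound (10-point, 0.005–100 μM, 1% DMSO) in 50 mM HEPES pH 7.5, 0.01% Brij-35, 10 mM MgCl₂, 1 mM EGTA. Reaction started with 10 μM ATP plus 10 μM InsP₃ (IPMK) or InsP₆ (IP6K2), run 30 min. ADP detected by Adapta TR-FRET. IC50 from 4-parameter fit.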

[1] = molecular target: T1, Inositol hexakisphosphate kinase 2 (Homo sapiens, UniProt Q9UHH9); test: Inhibition of human IP6K2 using insP6 as substrate preincubated for 15 mins followed by substrate and measured after 30 mins by TR-FRET assay
T1 sequence (Q9UHH9 whole entry): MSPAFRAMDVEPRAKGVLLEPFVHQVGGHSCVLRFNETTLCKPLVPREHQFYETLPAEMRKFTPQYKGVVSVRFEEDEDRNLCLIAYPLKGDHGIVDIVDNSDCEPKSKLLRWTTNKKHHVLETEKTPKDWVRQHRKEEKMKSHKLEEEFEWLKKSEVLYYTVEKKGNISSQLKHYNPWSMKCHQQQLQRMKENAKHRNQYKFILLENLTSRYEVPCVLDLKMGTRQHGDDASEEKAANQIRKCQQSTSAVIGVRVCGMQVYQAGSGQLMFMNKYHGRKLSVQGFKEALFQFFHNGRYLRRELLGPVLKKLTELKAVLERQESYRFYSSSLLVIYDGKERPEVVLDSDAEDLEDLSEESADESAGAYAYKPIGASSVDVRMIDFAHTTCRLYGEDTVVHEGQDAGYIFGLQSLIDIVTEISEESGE

O=c1c(O)c(-c2ccc(O)c(O)c2)oc2cc(O)cc(O)c12 [QUERCETIN]
Ratio IC50 (Homo sapiens): 3.3 | IC50 [1]: 700 nM
